The values that follow come from PubChem BioAssay (Tox21).

Sequences of proteins named here, by UniProt entry; tags and fusion partners are left off. A change or cut given only in a name is not applied to a line headed by its entry.
UniProt P04150: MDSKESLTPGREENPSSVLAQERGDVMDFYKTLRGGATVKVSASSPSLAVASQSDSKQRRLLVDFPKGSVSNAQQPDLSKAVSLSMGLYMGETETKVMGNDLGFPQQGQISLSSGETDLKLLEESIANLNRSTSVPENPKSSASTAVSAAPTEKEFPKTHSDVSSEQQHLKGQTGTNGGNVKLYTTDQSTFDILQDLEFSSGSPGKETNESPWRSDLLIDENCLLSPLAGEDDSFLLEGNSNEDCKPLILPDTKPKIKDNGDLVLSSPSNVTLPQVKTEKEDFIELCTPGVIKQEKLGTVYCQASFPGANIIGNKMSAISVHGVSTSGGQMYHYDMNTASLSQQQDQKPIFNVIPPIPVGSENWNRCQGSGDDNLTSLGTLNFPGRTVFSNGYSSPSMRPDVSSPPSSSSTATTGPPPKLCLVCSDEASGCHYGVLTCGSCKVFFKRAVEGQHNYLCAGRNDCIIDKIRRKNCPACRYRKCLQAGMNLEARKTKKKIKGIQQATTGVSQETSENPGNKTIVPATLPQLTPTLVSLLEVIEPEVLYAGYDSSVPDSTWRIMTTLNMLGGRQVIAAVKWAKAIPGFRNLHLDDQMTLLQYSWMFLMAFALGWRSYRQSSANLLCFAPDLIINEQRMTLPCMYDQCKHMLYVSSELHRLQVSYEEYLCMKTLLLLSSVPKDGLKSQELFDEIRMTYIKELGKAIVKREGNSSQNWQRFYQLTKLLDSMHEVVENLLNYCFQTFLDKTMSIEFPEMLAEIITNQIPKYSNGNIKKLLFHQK
UniProt P10275: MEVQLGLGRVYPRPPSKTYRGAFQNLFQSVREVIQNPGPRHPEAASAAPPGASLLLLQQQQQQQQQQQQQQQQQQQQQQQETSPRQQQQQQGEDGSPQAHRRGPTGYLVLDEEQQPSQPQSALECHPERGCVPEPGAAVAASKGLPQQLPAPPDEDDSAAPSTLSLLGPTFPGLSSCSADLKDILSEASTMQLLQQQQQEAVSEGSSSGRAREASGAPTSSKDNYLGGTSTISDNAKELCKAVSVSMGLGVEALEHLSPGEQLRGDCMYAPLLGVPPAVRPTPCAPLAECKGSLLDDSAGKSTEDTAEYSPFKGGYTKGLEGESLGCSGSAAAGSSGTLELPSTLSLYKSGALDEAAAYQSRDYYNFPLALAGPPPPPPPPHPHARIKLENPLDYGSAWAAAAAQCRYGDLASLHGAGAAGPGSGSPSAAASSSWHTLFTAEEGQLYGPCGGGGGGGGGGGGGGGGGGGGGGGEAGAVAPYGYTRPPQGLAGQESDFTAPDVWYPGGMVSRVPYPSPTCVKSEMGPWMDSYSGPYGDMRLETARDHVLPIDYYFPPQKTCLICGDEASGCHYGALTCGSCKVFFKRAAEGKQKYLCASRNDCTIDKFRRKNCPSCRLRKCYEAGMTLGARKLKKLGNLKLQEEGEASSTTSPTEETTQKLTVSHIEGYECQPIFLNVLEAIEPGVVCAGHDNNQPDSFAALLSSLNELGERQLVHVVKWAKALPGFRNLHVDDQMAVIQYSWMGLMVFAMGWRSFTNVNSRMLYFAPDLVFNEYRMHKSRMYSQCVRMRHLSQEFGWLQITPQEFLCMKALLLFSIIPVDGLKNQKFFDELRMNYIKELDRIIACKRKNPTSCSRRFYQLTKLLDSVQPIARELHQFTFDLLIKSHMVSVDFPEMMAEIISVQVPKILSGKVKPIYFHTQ
UniProt P03372, whole entry, looked up: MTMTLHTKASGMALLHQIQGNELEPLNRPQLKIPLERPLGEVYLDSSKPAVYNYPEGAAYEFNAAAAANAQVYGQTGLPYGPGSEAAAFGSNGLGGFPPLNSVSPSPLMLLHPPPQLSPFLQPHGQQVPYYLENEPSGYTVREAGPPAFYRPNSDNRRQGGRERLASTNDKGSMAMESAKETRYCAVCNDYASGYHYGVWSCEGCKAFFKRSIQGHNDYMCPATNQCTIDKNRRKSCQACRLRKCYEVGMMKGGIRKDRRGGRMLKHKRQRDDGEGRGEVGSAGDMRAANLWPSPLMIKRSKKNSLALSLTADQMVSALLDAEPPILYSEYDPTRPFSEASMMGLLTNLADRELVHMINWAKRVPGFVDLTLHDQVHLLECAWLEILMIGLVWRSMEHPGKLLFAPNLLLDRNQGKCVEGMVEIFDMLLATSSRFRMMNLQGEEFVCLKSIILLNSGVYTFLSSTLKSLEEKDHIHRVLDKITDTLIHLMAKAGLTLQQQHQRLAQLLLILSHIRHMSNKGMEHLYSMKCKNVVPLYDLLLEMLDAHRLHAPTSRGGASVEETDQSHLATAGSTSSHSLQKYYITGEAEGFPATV

Experiment [1] can be described thus: qHTS assay to test for compound auto fluorescence at 460 nm (blue) in HepG2 cell free culture (AID 720685). The conditions noted are these: Cell-free culture medium, blue autofluorescence 405/460 nm; at 91.3 µM (top of the series) unless noted. The essentials: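 Compound (23 nL) or DMSO pinned into cell-free MEM with 10% FBS; blue fluorescence read at 405/460 nm excitation/emission, expressed as auto-fluorescence equivalency to triamterene.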
Background: qHTS replaces the single test concentration by a dilution series.

Experiment [2] in a line: qHTS assay to test for compound auto fluorescence at 535 nm (green) in HepG2 cell free culture (AID 720686). The following applies: Cell-free medium, green autofluorescence 485/535 nm; at 91.3 µM (top of the series) unless noted.
The nature of experiment [3]: qHTS assay to test for compound auto fluorescence at 460 nm (blue) in HepG2 cells (AID 720687). The conditions noted are these: autofluorescence 405/460 nm, 1 h; at 91.3 µM (top of the series) unless noted. The essentials:
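Cells (2,000/well in MEM with 10% FBS) attached overnight at 37 C, then were exposed to compound or DMSO for 1 hr at 37 C, 5% CO2. Fluorescence read at Ex/Em 405/460 nm, expressed as triamterene-equivalent signal.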

Experiment [4] has as its target Glucocorticoid receptor (Homo sapiens) (UniProt P04150). As to the kind of experiment: qHTS assay to identify small molecule agonists of the glucocorticoid receptor (GR) signaling pathway (AID 720691; active means well fitted activation curve with a large enough effect in the signal ratio in the repeat runs, not every such curve was filed as active; inconclusive means weak or mixed curves, or effect the other way; inactive means no such curve, though single readings can be large or run the other way; the % refers to the signal ratio). The conditions noted are these: GR-bla HeLa, beta-lactamase reporter ratio, 18 h; at 62.4 µM (top of the series) unless noted.
For experiment [5] the target is unchanged. Kind of experiment: qHTS assay to identify small molecule antagonists of the glucocorticoid receptor (GR) signaling pathway (AID 720692; active means well fitted inhibition curve with a large enough effect in the signal ratio in the repeat runs, not every such curve was filed as active; inconclusive means weak or mixed curves, or effect the other way; inactive means no such curve, though single readings can be large or run the other way; the % refers to the signal ratio). The following applies: GR-bla HeLa, beta-lactamase FRET ratio, dexamethasone-stimulated, 18 h; at 58.5 µM (top of the series) unless noted.
Experiment [6] in a line: qHTS assay to identify small molecule antagonists of the glucocorticoid receptor (GR) signaling pathway - cell viability counter screen (AID 720693). Further: nearly all actives have a fitted effect of over 55% in size.
Experiment [7] in a line: qHTS assay for identifying genotoxic compounds that show differential cytotoxicity against isogenic chicken DT40 cell lines with known DNA damage response pathways - wild type cell line (AID 743012). Further: nearly all actives have a fitted effect of over 60% in size. Further: potency means the concentration at half of the fitted maximal effect. The gist of the method: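 Quantitative HTS on parental DT40 cells: 40 h compound treatment at 37 C/5% CO2, with viability then determined by CellTiter-Glo luminescence. Values serve as the DNA repair-proficient reference for differential cytotoxicity.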

Experiment [8] is described as follows: qHTS assay for identifying genotoxic compounds that show differential cytotoxicity against isogenic chicken DT40 cell lines with known DNA damage response pathways - Rev3 mutant cell line (AID 743014). Further: nearly all actives have a fitted effect of over 55% in size. Further: potency means the concentration at half of the fitted maximal effect.
The nature of experiment [9]: qHTS assay for identifying genotoxic compounds that show differential cytotoxicity against isogenic chicken DT40 cell lines with known DNA damage response pathways - Rad54/Ku70 mutant cell line (AID 743015). Further: nearly all actives have a fitted effect of over 60% in size. Further: potency means the concentration at half of the fitted maximal effect.
Experiment [10] deals with Androgen receptor (Homo sapiens) (UniProt P10275). Kind of experiment: qHTS assay to identify small molecule antagonists of the androgen receptor (AR) signaling pathway (AID 743035; active means well fitted inhibition curve with a large enough effect in the signal ratio in the repeat runs, not every such curve was filed as active; inconclusive means weak or mixed curves, or effect the other way; inactive means no such curve, though single readings can be large or run the other way; the % refers to the signal ratio).
The target is the same in experiment [11]. Kind of experiment: qHTS assay to identify small molecule agonists of the androgen receptor (AR) signaling pathway (AID 743036; active means well fitted activation curve with a large enough effect in the signal ratio in the repeat runs, with a control signal flat, not every such curve was filed as active; inconclusive means weak or mixed curves, or effect the other way; inactive means no such curve, though single readings can be large or run the other way; the % refers to the signal ratio). The conditions noted are these: HEK293 AR-UAS-bla GripTite, beta-lactamase FRET ratio, 16 h; at 62.4 µM (top of the series).
Experiment [12] has the same target. As to the kind of experiment: qHTS assay to identify small molecule agonists of the androgen receptor (AR) signaling pathway using the MDA cell line (AID 743040; further: nearly all actives have a fitted effect of over 20% in size). The following applies: MDA-kb2 AR-luc cells, MMTV luciferase, 16 h, active compounds read high.
Experiment [13] shares this target. As to the kind of experiment: qHTS assay to identify small molecule antagonists of the androgen receptor (AR) signaling pathway using the MDA cell line (AID 743042; further: nearly all actives have a fitted effect of over 55% in size).
Experiment [14] can be described thus: qHTS assay to identify small molecule antagonists of the thyroid receptor (TR) signaling pathway - cell viability counter screen (AID 743064). Further: nearly all actives have a fitted effect of over 50% in size. The gist of the method: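 Same-well viability check: GH3.TRE-Luc cells stimulated with 1 nM T3 alongside test compound for 23.5 h, followed by CellTiter-Fluor fluorescence.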
In experiment [15] the test system is thyroid hormone receptor (rat, GH3 cells). Kind of experiment: qHTS assay to identify small molecule agonists of the thyroid receptor (TR) signaling pathway (AID 743066; calls by dose curve). The following applies: GH3.TRE-Luc cells, TR agonist luciferase, 24 h; at 83.9 µM (top of the series) unless noted.
Experiment [16] deals with Estrogen receptor (Homo sapiens) (UniProt P03372). Kind of experiment: qHTS assay to identify small molecule antagonists of the estrogen receptor alpha (ER-alpha) signaling pathway (AID 743069; active means well fitted curve in the direction sought with a large enough effect in the signal ratio in the repeat runs, not every such curve was filed as active; inconclusive means weak or mixed curves, or effect the other way; inactive means no such curve, though single readings can be large or run the other way; the % refers to the signal ratio; further: potency means the concentration at half of the fitted maximal effect). The essentials:
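HEK293 cells stably carrying an ER-alpha-UAS-bla beta-lactamase reporter were pre-cultured overnight in 2% charcoal-stripped FBS medium. Test compounds in DMSO were added together with 17beta-estradiol for 18 hr at 37C. Read-out was fluorescence after 2 hr with LiveBLAzer B/G FRET substrate at room temperature.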

Experiment [17] has the same target. Kind of experiment: qHTS assay to identify small molecule agonists of the estrogen receptor alpha (ER-alpha) signaling pathway (AID 743075; calls by dose curve).
For experiment [18] the target is unchanged. As to the kind of experiment: qHTS assay to identify small molecule agonists of the estrogen receptor alpha (ER-alpha) signaling pathway using the BG1 cell line (AID 743079). Further: nearly all actives have a fitted effect of over 20% in size. Further: potency means the concentration at half of the fitted maximal effect.
The nature of experiment [19]: qHTS assay to identify small molecule antagonists of the estrogen receptor alpha (ER-alpha) signaling pathway using the BG1 cell line (AID 743080; calls by dose curve;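 further: BG1 cells stimulated with 17beta-estradiol alongside compound; nearly all actives have a fitted effect of over 25% in size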). The conditions noted are these: BG1Luc4E2 ERE-luciferase antagonist mode, luminescence; at 70.3 µM (top of the series) unless noted. The essentials:
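Seeding, 24 h rest, compound transfer from DMSO, 17beta-estradiol addition, 21.5 h incubation, CellTiter-Fluor (30 min, 37 C), then ONE-Glo (30 min, room temperature): this sequence was run on BG1-Luc-4E2 reporter cells.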

Experiment [20] in a line: qHTS assay to identify small molecule antagonists of the estrogen receptor alpha (ER-alpha) signaling pathway - cell viability counter screen (AID 743074; calls by dose curve; further: nearly all actives have a fitted effect of over 45% in size).

Several values for one entry are separate records, joined by “and”; a condition that tells them apart may be missing. Identical values can stand only once. The list shows a part of the results, in another mix than the full data. Activity calls are given as the source filed them. Unless noted, the call rests on the fitted dose curve; in most records, active means well fitted curve in the direction sought with a large enough effect in the repeat runs; inconclusive means weak or mixed curves; inactive means no such curve, though single readings can be large; an effect the other way counts as inactive or inconclusive.
On the % scale 0 is the no-effect control and ±100 the full control effect.

Regarding `O=[P+](Oc1ccccc1)Oc1ccccc1`, the fluorescence, % of fluorescent control in experiment [1] is inactive: 0.0008%; in experiment [3], inactive: -0.114%. In addition, the fluorescence, % of fluorescein control in experiment [2] is inactive: -0.0217%. The activation in experiment [4] is inactive: 0.3%; in experiment [11] it was inactive: -8.87%; in [15], inactive: -0.242%. Besides, the activity change, negative = inhibition in [5] was inactive: 0.534%; in [19], inactive: 0.765%. The Potency entry in experiment [6], in experiment [7], in [8], in [9], in experiment [10] and in experiment [13] was “inactive” each time. In addition, the Potency result in experiment [14], in experiment [16] and in experiment [17] was “inactive” in each case. In experiment [12] (at 70.3 µM (top of the series)), the activity change is inactive: 1.08%. The Potency in experiment [18] is active: 34.2 µM.

For `CCCCO[P+](=O)OCCCC`, the fluorescence, % of fluorescent control was inactive: -0.148% and inactive: -0.157% in experiment [1]; inactive: 0.0461% and inactive: -0.0662% in [3]. The fluorescence, % of fluorescein control in experiment [2] was inactive: 0.0263% and inactive: -0.0058%. Further, the Potency result in experiment [6], in experiment [7], in [8], in experiment [9], in [10] and in [13] was “inactive” throughout. For the same compound, the Potency entry in experiment [14], in [16], in experiment [20], in [17] and in experiment [18] was “inactive” throughout. Further, the activation in experiment [11] is inactive: 4.2% and inactive: -0.0786%; in [15], inactive: 0.352% and inactive: 0.0117%. In addition, the activity change in experiment [12] (at 70.3 µM (top of the series)) was inactive: -1.27% and inactive: -1.2%. Further, in experiment [19], the activity change, negative = inhibition was inactive: -1.39% and inactive: 3.76%.

With `CCCCCCCCCCCCCC[P+](CCCCCC)(CCCCCC)CCCCCC`, the results for the fluorescence, % of fluorescent control in experiment [1] and in experiment [3] were inactive: -0.0607% and inactive: -0.0302%, respectively. In experiment [2], the fluorescence, % of fluorescein control is inactive: -0.0931%. Further, the activation in experiment [15] is inactive: -8.34%. Further, the Potency in experiment [16] is active: 0.615 µM [inconclusive].

As for `ClP(Cl)c1ccccc1`, the fluorescence, % of fluorescent control in [1] was inactive: -0.0113%; in experiment [3], inactive: -0.0559%. In experiment [2], the fluorescence, % of fluorescein control is inactive: 0.0186%. In addition, the activation was inactive: 1.18% in experiment [4] and inactive: 2.84% in experiment [15]. Also, the values for the activity change, negative = inhibition in experiment [5] and in experiment [19] were inactive: -0.498% and inactive: -6.61%, respectively. The Potency entry in [6], in [7], in [8], in [9], in experiment [14] and in experiment [16] was “inactive” throughout. The Potency result in experiment [20], in experiment [17] and in experiment [18] was “inactive” throughout.

In the case of `CC(C)OP(=S)(OC(C)C)SCCNS(=O)(=O)c1ccccc1`, the fluorescence, % of fluorescent control in experiment [1] was inactive: 0.0898%; in experiment [3], inactive: -0.135%. For the same compound, the fluorescence, % of fluorescein control in experiment [2] is inactive: 0.17%. Further, in [4], the activation is inactive: 0.0041%. Also, the Potency entry in experiment [6], in experiment [14] and in [20] was “inactive” in each case. In addition, the Potency in experiment [7] is active: 12.2 µM; in [8], active: 8.63 µM; in [9] it was active: 13.7 µM.

Regarding `Cc1cc([N+](=O)[O-])c(O)c([N+](=O)[O-])c1`, the fluorescence, % of fluorescent control in experiment [1] is inactive: -0.813%; in experiment [3], inactive: -0.72%. Also, the fluorescence, % of fluorescein control in experiment [2] was inactive: -0.504%. The results for the activation in experiment [4] and in experiment [15] were inactive: 1.83% [at 79.2 µM] and inactive: -0.526% [at 95.2 µM], respectively. Also, the Potency entry in experiment [6], in experiment [13], in experiment [16] and in [17] was “inactive” in each case. In addition, the Potency in experiment [9] is active: 55 µM. Further, in [12] (at 95 µM (top of the series)), the activity change is inactive: -3.08%.

Consider `O=P(Cl)(Oc1ccccc1)Oc1ccccc1`, for which the fluorescence, % of fluorescent control in [1] is inactive: 0.323%; in experiment [3], inactive: -0.0162%. In addition, in [2], the fluorescence, % of fluorescein control was inactive: -0.0023%. For the same compound, the activation in experiment [4] was inactive: 0.0192%. For the same compound, the Potency entry in [6], in [8], in experiment [9], in experiment [14], in experiment [16] and in [20] was “inactive” each time. Moreover, the Potency result in experiment [17] and in experiment [18] was “inactive” in each case. In addition, in experiment [19], the activity change, negative = inhibition was inactive: 8.43%.
